Measurements: patent US20260023070A1, “OPTOGENETIC ALPHA-SYNUCLEIN AGGREGATION SYSTEM-BASED COMPOUND SCREENING PLATFORM IN PD-hiPSC-mDA NEURONS” (The Johns Hopkins University, priority 2022, published 2026)

Test system: opto-α-syn SH-SY5Y cells
Test: OASIS-based high-content imaging assay of light-induced α-syn aggregation (5G4 staining, Aggregates Induction Score)
Type: cell-based, human
Experimental: The opto-α-syn expressing SH-SY5Y cells were seeded in 96-well black flat bottom imaging microplates (Falcon) at 30,000 cells per well in 100 μL of complete media using E1-ClipTip electronic multichannel pipette (Thermo Fisher Scientific) and incubated in 37° C. and 5% CO2 humidified incubator. After 18 h of incubation, 10 μL of 10 μM compounds (column 2 to 10) or 1% DMSO (column 1 and 12) were added (final concentration of DMSO is 0.1%). In order to induce aggregations, the plates were illuminated with blue light (26 μW/mm^2) on customized blue light illumination 96-well plates for 2 h. […] To analyze images, the automated aggregation quantification algorithm and cell counting algorithm in the form of macro are developed using ImageJ software. […] The Aggregates Induction Score (AIS) is calculated using, the following equation: […]
where N^agg is the number of aggregates, ^Ntotal is the number of total cells. […] The hit selection strategy was based on calculated AIS; hits were defined as AIS<0.5. […] Two independent experiments were performed, and total 10 images per well are analyzed to calculate AIS. […]
As illustrated in FIGS. 9A-9B, high-content imaging screening with the optogenetic α-syn aggregation system was performed. The measurement of 5G4^+ aggregates in opto-mock or opto-α-syn SH-SY5Y neuronal cells was assessed. […] Number of DAPI from the original images were counted (FIG. 9B). […]

Structure (SMILES): C[C@@H]1CN(Cc2ccc(F)cc2)CCN1C(=O)COc1ccc(Cl)cc1NC(N)=O [BX 471]
- AIS, aggregates induction score: 0.97
